Measurements from PubChem BioAssay AID504770 (ICCB-Longwood Screening Facility, Harvard Medical School, 2011).
Only a part is listed here, and it is no random draw. Calls of active or inactive are those of the source. No stated cut-off is given here; in the data, active means z-score below about -2 (passing the limit was not always enough); inactive means the rest.

Assay: PubChem AID 504770
Conditions: E. coli YBA685 rctB-dependent plasmid, OD600 growth, 3 h; active compounds read low

SMILES | z-score
CN(CCCl)CCCl | inactive: -0.55
